Values of other authors in US20120329842A1 (priority 2010, published 2012).

System: other MBLs
Conditions: cited from earlier work

## O=C(O)c1cccc(C(=O)O)n1 [pyridine-2,6-dicarboxylic acid]
  activity against other MBLs: not other MBLs
